From ChEMBL document CHEMBL4831546, “Discovery of a Potent and Orally Bioavailable Hypoxia-Inducible Factor 2α (HIF-2α) Agonist and Its Synergistic Therapy with Prolyl Hydroxylase Inhibitors for the Treatment of Renal Anemia” (J Med Chem, 2021)

The chains behind the UniProt entries cited, without tags or fusion partners. Where a name states a change or a piece, a line headed by the entry shows the natural chain unless it says otherwise.
UniProt Q99814: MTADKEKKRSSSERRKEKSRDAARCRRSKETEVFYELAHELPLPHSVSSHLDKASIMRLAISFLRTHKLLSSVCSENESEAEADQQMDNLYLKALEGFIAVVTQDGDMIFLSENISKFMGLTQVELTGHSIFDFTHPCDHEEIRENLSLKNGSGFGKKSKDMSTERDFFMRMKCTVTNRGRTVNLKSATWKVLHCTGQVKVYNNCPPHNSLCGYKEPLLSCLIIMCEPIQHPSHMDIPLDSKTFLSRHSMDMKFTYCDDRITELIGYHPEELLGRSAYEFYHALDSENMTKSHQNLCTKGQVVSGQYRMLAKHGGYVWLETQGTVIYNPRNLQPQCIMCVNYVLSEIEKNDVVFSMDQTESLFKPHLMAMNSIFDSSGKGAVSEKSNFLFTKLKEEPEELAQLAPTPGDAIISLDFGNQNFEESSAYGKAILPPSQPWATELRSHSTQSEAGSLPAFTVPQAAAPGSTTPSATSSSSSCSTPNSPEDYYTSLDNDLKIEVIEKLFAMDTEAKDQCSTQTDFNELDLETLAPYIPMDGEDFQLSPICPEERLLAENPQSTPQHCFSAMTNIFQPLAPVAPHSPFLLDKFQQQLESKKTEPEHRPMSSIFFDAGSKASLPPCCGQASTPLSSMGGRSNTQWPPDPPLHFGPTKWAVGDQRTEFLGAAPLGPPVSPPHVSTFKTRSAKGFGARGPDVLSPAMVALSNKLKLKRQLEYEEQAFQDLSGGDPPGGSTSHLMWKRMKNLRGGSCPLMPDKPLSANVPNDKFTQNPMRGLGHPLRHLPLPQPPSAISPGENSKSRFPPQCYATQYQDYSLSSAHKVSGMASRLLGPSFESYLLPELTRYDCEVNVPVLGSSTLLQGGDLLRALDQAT

Molecular target: Endothelial PAS domain-containing protein 1 (Homo sapiens, UniProt Q99814)

- EC50: 1350 nM
Compound: Brc1cc(Br)cc(Nc2nsc3ccccc23)c1
